Experimental data from patent US9809545B2, “Factor XIa inhibitors” (Merck Sharp & Dohme Corp., priority 2013, dated 2017).

By UniProt entry, the sequences of proteins in these tests, tags left out. Residues count along the entry.
UniProt P03951, 388-625 limits assumed: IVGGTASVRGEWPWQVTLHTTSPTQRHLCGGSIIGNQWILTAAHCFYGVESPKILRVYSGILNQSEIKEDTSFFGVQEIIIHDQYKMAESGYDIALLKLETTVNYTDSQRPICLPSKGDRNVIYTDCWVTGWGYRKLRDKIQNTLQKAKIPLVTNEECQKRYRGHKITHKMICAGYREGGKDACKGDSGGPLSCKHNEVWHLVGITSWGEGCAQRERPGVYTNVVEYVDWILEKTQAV
UniProt P03951, 19-387 partner limits assumed: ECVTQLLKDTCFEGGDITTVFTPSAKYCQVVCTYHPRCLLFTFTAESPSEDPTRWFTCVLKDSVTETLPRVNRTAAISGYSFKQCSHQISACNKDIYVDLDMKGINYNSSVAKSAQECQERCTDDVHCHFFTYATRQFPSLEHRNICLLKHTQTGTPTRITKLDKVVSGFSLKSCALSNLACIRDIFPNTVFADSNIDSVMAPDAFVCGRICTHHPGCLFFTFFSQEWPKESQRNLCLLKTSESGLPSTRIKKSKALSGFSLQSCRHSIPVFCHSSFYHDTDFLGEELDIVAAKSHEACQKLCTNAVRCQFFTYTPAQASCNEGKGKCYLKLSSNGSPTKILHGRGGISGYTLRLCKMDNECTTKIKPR

Molecular target: purified human Factor XIa (Homo sapiens (Human), UniProt P03951)
Assay: Factor XIa Assay
Type: biochemical
Settings: read-out: hFXIa Ki; purified human Factor XIa 40 pM; substrate Z-Gly-Pro-Arg-AFC 100 μM; 50 mM HEPES pH 7.4

O=C(Nc1ccc2[nH]c(C(F)(F)F)nc2c1)C(Cc1ccccc1)n1ccc(-c2cc(Cl)ccc2-n2cnnn2)cc1=O (stereo not shown)
Ki: < 5 nM
